Assay results reported in ChEMBL document CHEMBL5385861.

Sequences of proteins named here, by UniProt entry; tags and fusion partners are left off. A change or cut given only in a name is not applied to a line headed by its entry.
UniProt Q06187: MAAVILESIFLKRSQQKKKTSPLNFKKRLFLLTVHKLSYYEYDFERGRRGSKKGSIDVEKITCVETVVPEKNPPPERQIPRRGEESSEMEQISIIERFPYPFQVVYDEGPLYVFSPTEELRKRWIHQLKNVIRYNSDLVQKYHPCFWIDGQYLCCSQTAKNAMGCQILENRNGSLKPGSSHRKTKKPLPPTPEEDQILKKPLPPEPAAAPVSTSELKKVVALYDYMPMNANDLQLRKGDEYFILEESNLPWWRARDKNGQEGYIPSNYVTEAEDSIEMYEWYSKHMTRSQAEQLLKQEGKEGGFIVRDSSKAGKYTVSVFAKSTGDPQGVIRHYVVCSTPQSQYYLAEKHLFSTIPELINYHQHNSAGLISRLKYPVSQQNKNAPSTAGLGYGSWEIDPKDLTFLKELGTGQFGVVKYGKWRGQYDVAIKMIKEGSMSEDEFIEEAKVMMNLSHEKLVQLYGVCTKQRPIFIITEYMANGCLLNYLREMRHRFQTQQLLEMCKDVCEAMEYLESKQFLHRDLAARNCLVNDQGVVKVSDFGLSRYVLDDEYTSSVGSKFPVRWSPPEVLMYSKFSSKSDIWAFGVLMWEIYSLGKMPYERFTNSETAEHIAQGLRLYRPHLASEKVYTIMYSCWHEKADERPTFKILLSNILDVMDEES

Biological target: Tyrosine-protein kinase BTK (Homo sapiens, UniProt Q06187)
Assay: Inhibition of BTK (unknown origin) incubated for 40 mins by radiometric kinase assay

`C=CC(=O)Nc1cccc(Nc2nc(Nc3ccc(OCCOC)cc3)ncc2F)c1` [SPEBRUTINIB] was tested. Which pIC50 did it give?
The pIC50 was 7.27.

pIC50: −log10 of the molar value.
